Data taken from US20060030585A1, “Tricyclic delta-opioid modulators” (priority 2004, published 2006).

Amino acid sequences for entries named in this document (tags omitted).
UniProt P33533, whole entry: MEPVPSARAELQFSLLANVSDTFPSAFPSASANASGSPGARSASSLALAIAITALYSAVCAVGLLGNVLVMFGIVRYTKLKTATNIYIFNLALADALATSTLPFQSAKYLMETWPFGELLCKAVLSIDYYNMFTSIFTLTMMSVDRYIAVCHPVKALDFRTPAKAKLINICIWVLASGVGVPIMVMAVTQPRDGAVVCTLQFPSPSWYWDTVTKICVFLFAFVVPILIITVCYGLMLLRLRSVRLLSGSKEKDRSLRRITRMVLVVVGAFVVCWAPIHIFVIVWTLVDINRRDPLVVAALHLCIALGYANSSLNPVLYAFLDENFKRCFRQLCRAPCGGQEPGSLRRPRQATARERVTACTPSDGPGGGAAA
UniProt P33535, whole entry: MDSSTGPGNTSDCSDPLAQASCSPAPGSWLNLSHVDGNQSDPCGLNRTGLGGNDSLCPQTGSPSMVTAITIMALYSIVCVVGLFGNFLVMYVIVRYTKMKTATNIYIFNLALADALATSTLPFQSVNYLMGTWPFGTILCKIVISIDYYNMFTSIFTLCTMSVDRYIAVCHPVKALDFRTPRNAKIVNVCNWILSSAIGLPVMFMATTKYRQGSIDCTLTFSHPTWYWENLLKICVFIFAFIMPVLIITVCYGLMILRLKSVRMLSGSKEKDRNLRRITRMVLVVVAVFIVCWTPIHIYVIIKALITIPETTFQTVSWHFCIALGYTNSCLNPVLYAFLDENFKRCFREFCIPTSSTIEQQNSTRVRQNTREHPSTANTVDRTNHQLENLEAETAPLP

Experiments:
delta opioid receptor = delta opioid receptor (Rattus norvegicus, UniProt P33533); experiment: Rat brain delta opioid receptor binding assay ([3H]DPDPE); conditions: read-out: DOR Ki; Rat delta opioid receptor binding constant; rat forebrain membranes, ~4 nM [3H]DPDPE
Method: Rat Brain Delta Opioid Receptor Binding Assay
Procedure: Male, Sprague Dawley rats (150-250 g, VAF, Charles River, Kingston, N.Y.) were killed by CO2, and their brains removed and placed immediately in ice cold Tris HCl buffer (50 mM, pH 7.4). The forebrains were separated from the remainder of the brain by a coronal transection, beginning dorsally at the colliculi and passing ventrally through the midbrain-pontine junction. After dissection, the forebrains were homogenized in Tris buffer in a Teflon®-glass homogenizer. The homogenate was diluted to a concentration of 1 g of forebrain tissue per 80 mL Tris and centrifuged at 39,000×g for 10 min. The pellet was resuspended in the same volume of Tris buffer containing 5 mM MgCl2 with several brief pulses from a Polytron homogenizer. […] To each sample area 2×50 μL of Betaplate Scint scintillation fluid (LKB) was added and the radioactivity quantified on a LKB (Wallac) 1205 BetaPlate liquid scintillation counter.
Analysis: The data from the scintillation counter were used to calculate either the % inhibition compared to control binding (when only a single concentration of test compound was evaluated) or a Ki value (when a range of concentrations was tested). Percent inhibition was calculated as: [(total dpm-test compound dpm)/(total dpm-nonspecific dpm)]*100. Kd and Ki values were calculated using GraphPad PRISM data analysis program.

mu opioid receptor = mu opioid receptor (Rattus norvegicus, UniProt P33535); experiment: Rat brain mu opioid receptor binding assay ([3H]DAMGO); conditions: read-out: MOR Ki; Rat mu opioid receptor binding constant; rat forebrain membranes, ~0.8 nM [3H]DAMGO

CN(CCO)C(=O)c1ccc2c(c1)Oc1ccccc1C2=C1CC2CCC(C1)N2C(=O)OC(C)(C)C
Ki (delta opioid receptor): > 10 µM | Ki (mu opioid receptor): > 10 µM
